Here are results for one compound from publication PMC4871480, “A Miniaturized Screen of a Schistosoma mansoni Serotonergic G Protein-Coupled Receptor Identifies Novel Classes of Parasite-Selective Inhibitors” (PLoS Pathogens, 2016).

Chains of the proteins cited; added tags and fusions are not shown.
UniProt G4V5G4, entry or part of it: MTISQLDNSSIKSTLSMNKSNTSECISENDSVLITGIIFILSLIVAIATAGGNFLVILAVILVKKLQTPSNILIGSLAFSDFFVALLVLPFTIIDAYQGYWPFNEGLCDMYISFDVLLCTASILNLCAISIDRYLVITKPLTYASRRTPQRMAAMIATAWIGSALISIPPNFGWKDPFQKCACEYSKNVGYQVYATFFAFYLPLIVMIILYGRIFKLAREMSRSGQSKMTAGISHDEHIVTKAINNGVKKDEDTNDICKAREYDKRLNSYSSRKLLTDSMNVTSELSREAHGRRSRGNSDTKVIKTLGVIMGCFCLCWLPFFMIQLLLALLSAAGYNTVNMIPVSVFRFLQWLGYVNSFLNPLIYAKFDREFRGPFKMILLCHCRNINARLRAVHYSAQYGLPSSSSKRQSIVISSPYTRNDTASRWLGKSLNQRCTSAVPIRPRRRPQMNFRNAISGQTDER

The experiment deals with Sm.5HTR (Schistosoma mansoni, UniProt G4V5G4). Briefly: cell-based. The protocol:
HEK293 cells (ATCC CRL-1573.3) were cultured in DMEM supplemented with 10% fetal bovine serum (FBS), penicillin (100 units/ml), streptomycin (100 μg/ml), and L-glutamine (290 μg/ml). Cells were transiently transfected (ViaFect, Promega) as per the manufacturer’s protocol at a density of 2x10^6 cells per T-25 cell-culture flask. Cells were transfected with plasmids encoding GloSensor (Promega) and either Sm.5HTR (Smp_126730, GenBank accession number KF444051.1) or Sm.5HTRL (KX150867), bothGPCRs being codon optimized for mammalian expression, or Hs.5HT7a (GenBank accession number NM_000872.4, R&D Systems) subcloned into pCS2(-). Cell culture reagents were from Invitrogen. Epitope tagged constructs were used to verify expression, and untagged constructs used for all luminescence assays.
For assays performed on adherent cells, HEK-293 cells were transferred one day post transfection to 96 well, solid white plates (Corning, cat # 3917) coated with 0.01% poly-L-lysine (Sigma Aldrich) at a density of 5 x 10^4 cells / well in DMEM supplemented with 1% dialyzed FBS (Gibco). […] Plates were allowed to equilibrate at room temperature for two hours prior to performing luminescence assays (GloMax-Multi Detection System plate reader, Promega). […]

One may read the EC50 as the concentration giving half of the maximal effect. Turning to `NCCc1c[nH]c2ccc(O)cc12` [5-HT, Serotonin], the EC50 reads like this: (EC50 (cAMP generation, Sm.5HTR)) about 1000 nM; (EC50 for cAMP generation) 703 ± 90 nM.
